The values below are quoted from earlier work in patent US8383577B2, “Octreotide implant having a release agent” (Endo Pharmaceuticals Solutions, Inc., priority 2008, dated 2013).

The conditions of this data set: cited from earlier work.

As for “D-tocopheryl (Vitamin E) polyethylene glycol 1000 succinate [Vitamin E TPGS]”, under “critical micelle concentration”, the “CMC” value is recorded as 0.1 mM. For the same substance, the HLB (hydrophilic-lipophilic balance) is reported as 13.
